Drawing on publication PMC4624854 (Frontiers in Molecular Neuroscience, 2015), this text covers EC50 for one molecule.

Structures are written as SMILES. Positions count from the first letter of the chain named.

Test [1] addresses T1, α2 (T59A/A261G/A303S) GlyRs (Homo sapiens, UniProt P23416, A288G/A330S/T86A).
T1 construct: expressed in transfected cells; host or cells: CHO
T1 sequence (P23416 28-452 T86A/A288G/A330S): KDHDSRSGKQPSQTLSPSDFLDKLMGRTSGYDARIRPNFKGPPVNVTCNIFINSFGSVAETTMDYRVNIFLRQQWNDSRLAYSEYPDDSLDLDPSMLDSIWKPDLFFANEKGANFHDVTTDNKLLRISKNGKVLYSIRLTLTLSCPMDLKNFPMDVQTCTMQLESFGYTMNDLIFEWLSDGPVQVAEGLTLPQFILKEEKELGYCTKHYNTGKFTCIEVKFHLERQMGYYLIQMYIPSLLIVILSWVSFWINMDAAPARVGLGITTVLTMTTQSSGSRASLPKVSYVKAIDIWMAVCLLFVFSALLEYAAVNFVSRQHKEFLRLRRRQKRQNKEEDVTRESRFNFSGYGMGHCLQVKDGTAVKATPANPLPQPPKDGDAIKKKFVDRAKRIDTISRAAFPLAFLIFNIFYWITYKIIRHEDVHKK
Kind of test: whole-cell patch-clamp of Igly, mutant α2 (T59A/A261G/A303S) GlyRs in CHO cells. Format: cell-based. The settings on record: read-out: glycine EC50 in control, cell illustrated in Figure 6C; no ginkgolic acid; one cell. For orientation: Patch clamp records ionic current or voltage across a cell membrane.

A further test deals with T2, α2 GlyRs (Homo sapiens, UniProt P23416).
T2 construct: expressed in transfected cells; host or cells: CHO-K1
T2 sequence (P23416 28-452): T1 sequence (P23416 28-452 T86A/A288G/A330S) with A59T, G261A, S303A
Kind of test: whole-cell patch-clamp of Igly, homomeric α2 GlyRs in CHO cells. Format: cell-based. The settings on record: read-out: EC50 to glycine; control, n = 10 (range and mean).

A word on the EC50: it is the concentration that produces a half-maximal response. As to `NCC(=O)O` [glycine, reference compound], the half-maximal effective concentration (EC50) in test [1] came out at 157 µM; on α2 GlyRs it was 42 ± 2 µM.
